PubChem BioAssay AID602405 (Broad Institute, 2012)
The entries are a selection whose mix differs from that of the whole data set. Activity calls are given as the source filed them. Cut-off read from the data, not from the text of the source: active = inhibition above about 16% (passing the limit was not always enough); inconclusive = no clear call, values can overlap the other calls; inactive = below that.

test system: UDP-N-acetylbacillosamine N-acetyltransferase PglD (Campylobacter jejuni); test: blockers of PglD enzyme activity – biochemical, DTNB colorimetric, single point, primary screen (AID 602405); settings: purified PglD enzyme, DTNB colorimetric CoA detection; at 12.5 µM; hits give high values

Compound	inhibition
CCNC(=S)/N=C(\N)N[N+](=O)[O-]	inactive: 3.39%
Cc1ccc(NP(=O)(Oc2cccc(C)c2)Oc2cccc(C)c2)nc1	inactive: 4.01%
CC(NC(=O)COC(=O)C(O)(c1ccccc1)c1ccccc1)c1ccccc1 (stereo unspecified)	inactive: -5.99%
CN(C)C(=O)Oc1noc2ccccc12	inactive: 1.31%
COC(=O)c1cc2c(s1)N=C(c1ccccc1)N(C)P2(=O)N1CCOCC1 (stereo unspecified)	inactive: 3.19%
CC(=O)NC(SC(=S)N(CC(C)C)CC(C)C)C(Cl)(Cl)Cl (stereo unspecified)	inactive: -4.34%
O=C(OC1CN2CCC1CC2)c1ccccc1 (stereo unspecified)	inactive: -3.87%
CCC(=O)N1C2C3N(C(=O)CC)C1C1N(C(=O)CC)C(C(N1C(=O)CC)N3C(=O)CC)N2C(=O)CC	inactive: -5.64%
O=P(Nc1nc2ccccc2s1)(c1ccccc1)c1ccccc1	inactive: -2.12%
C[C@H]1OP(=O)(Oc2ccccc2)[C@H](O)[C@H](O)[C@H]1N=[N+]=[N-] (stereo partly specified)	inactive: 1.24%
Nc1ccc(CCCCOc2ccccc2)cc1	inactive: -3.81%
COc1ccc(N)c([N+](=O)[O-])c1[N+](=O)[O-]	inactive: -1.11%
CN(C)C1(CNC(=O)c2ccc(Cl)c(S(N)(=O)=O)c2)CCCCC1	inactive: -5.65%
O=P(Nc1ccccn1)(c1ccc(Br)cc1)c1ccc(Br)cc1	inactive: 7.44%
Nc1ccc([As](=O)(O)c2ccc([N+](=O)[O-])cc2)cc1	inactive: 1.6%
O=C(OC1CN2CCC1CC2)c1cccc(Cl)c1 (stereo unspecified)	inactive: -6.71%
CC(=O)NC(SC(=S)N(C)C)C(Cl)(Cl)Cl (stereo unspecified)	inactive: -2.67%
O=[N+]([O-])c1ccc(O)c(/C=N/Nc2ccc([N+](=O)[O-])cc2[N+](=O)[O-])c1	inactive: 3.89%
O=[As](O)(c1ccccc1)c1ccc(O)cc1	inactive: -0.196%
c1nnnn1CCn1cnnn1	inactive: 0.156%
O=P(Nc1nccs1)(c1ccccc1)c1ccccc1	inactive: 4.57%
